From ChEMBL document CHEMBL4725474, “Discovery of a Selective, Covalent IRAK1 Inhibitor with Antiproliferative Activity in MYD88 Mutated B-Cell Lymphoma” (ACS Med Chem Lett, 2020)

Legend:
BCWM1 [1] = settings: Homo sapiens, dose 20.0 µM, time 72.0 hrs
BCWM1 [2] = settings: Homo sapiens, dose 6.325 µM, time 72.0 hrs
BCWM1 [3] = settings: Homo sapiens, dose 2.0 µM, time 72.0 hrs
BCWM1 [4] = settings: Homo sapiens, dose 0.632 µM, time 72.0 hrs
BCWM1 [5] = settings: Homo sapiens, dose 0.2 µM, time 72.0 hrs
BCWM1 [6] = settings: Homo sapiens, dose 20.0 µM, time 72.0 hrs; remark: listed apart in the source
BCWM1 [7] = settings: Homo sapiens, dose 6.325 µM, time 72.0 hrs; remark: listed apart in the source
BCWM1 [8] = settings: Homo sapiens, dose 2.0 µM, time 72.0 hrs; remark: listed apart in the source
BCWM1 [9] = settings: Homo sapiens, dose 0.632 µM, time 72.0 hrs; remark: listed apart in the source
BCWM1 [10] = settings: Homo sapiens, dose 0.2 µM, time 72.0 hrs; remark: listed apart in the source
BCWM1 [11] = settings: Homo sapiens, dose 20.0 µM, time 72.0 hrs; remark: listed apart in the source
BCWM1 [12] = settings: Homo sapiens, dose 6.325 µM, time 72.0 hrs; remark: listed apart in the source
BCWM1 [13] = settings: Homo sapiens, dose 2.0 µM, time 72.0 hrs; remark: listed apart in the source
BCWM1 [14] = settings: Homo sapiens, dose 0.632 µM, time 72.0 hrs; remark: listed apart in the source
BCWM1 [15] = settings: Homo sapiens, dose 0.2 µM, time 72.0 hrs; remark: listed apart in the source
BCWM1 [16] = settings: Homo sapiens, dose 20.0 µM, time 72.0 hrs; remark: listed apart in the source
BCWM1 [17] = settings: Homo sapiens, dose 6.325 µM, time 72.0 hrs; remark: listed apart in the source
BCWM1 [18] = settings: Homo sapiens, dose 2.0 µM, time 72.0 hrs; remark: listed apart in the source
BCWM1 [19] = settings: Homo sapiens, dose 0.632 µM, time 72.0 hrs; remark: listed apart in the source
BCWM1 [20] = settings: Homo sapiens, dose 0.2 µM, time 72.0 hrs; remark: listed apart in the source
BCWM1 [21] = settings: Homo sapiens, dose 20.0 µM, time 72.0 hrs; remark: listed apart in the source
BCWM1 [22] = settings: Homo sapiens, dose 6.325 µM, time 72.0 hrs; remark: listed apart in the source
BCWM1 [23] = settings: Homo sapiens, dose 2.0 µM, time 72.0 hrs; remark: listed apart in the source
BCWM1 [24] = settings: Homo sapiens, dose 0.632 µM, time 72.0 hrs; remark: listed apart in the source
BCWM1 [25] = settings: Homo sapiens, dose 0.2 µM, time 72.0 hrs; remark: listed apart in the source
TMD8 [26] = settings: Homo sapiens, dose 20.0 µM, time 72.0 hrs
TMD8 [27] = settings: Homo sapiens, dose 6.325 µM, time 72.0 hrs
TMD8 [28] = settings: Homo sapiens, dose 2.0 µM, time 72.0 hrs
TMD8 [29] = settings: Homo sapiens, dose 0.632 µM, time 72.0 hrs
TMD8 [30] = settings: Homo sapiens, dose 0.2 µM, time 72.0 hrs
TMD8 [31] = settings: Homo sapiens, dose 20.0 µM, time 72.0 hrs; remark: listed apart in the source
TMD8 [32] = settings: Homo sapiens, dose 6.325 µM, time 72.0 hrs; remark: listed apart in the source
TMD8 [33] = settings: Homo sapiens, dose 2.0 µM, time 72.0 hrs; remark: listed apart in the source
TMD8 [34] = settings: Homo sapiens, dose 0.632 µM, time 72.0 hrs; remark: listed apart in the source
TMD8 [35] = settings: Homo sapiens, dose 0.2 µM, time 72.0 hrs; remark: listed apart in the source
TMD8 [36] = settings: Homo sapiens, dose 20.0 µM, time 72.0 hrs; remark: listed apart in the source
TMD8 [37] = settings: Homo sapiens, dose 6.325 µM, time 72.0 hrs; remark: listed apart in the source
TMD8 [38] = settings: Homo sapiens, dose 2.0 µM, time 72.0 hrs; remark: listed apart in the source
TMD8 [39] = settings: Homo sapiens, dose 0.632 µM, time 72.0 hrs; remark: listed apart in the source
TMD8 [40] = settings: Homo sapiens, dose 0.2 µM, time 72.0 hrs; remark: listed apart in the source
TMD8 [41] = settings: Homo sapiens, dose 20.0 µM, time 72.0 hrs; remark: listed apart in the source
TMD8 [42] = settings: Homo sapiens, dose 6.325 µM, time 72.0 hrs; remark: listed apart in the source
TMD8 [43] = settings: Homo sapiens, dose 2.0 µM, time 72.0 hrs; remark: listed apart in the source
TMD8 [44] = settings: Homo sapiens, dose 0.632 µM, time 72.0 hrs; remark: listed apart in the source
TMD8 [45] = settings: Homo sapiens, dose 0.2 µM, time 72.0 hrs; remark: listed apart in the source

With `C=CC(=O)Nc1cccc(C(=O)Nc2ccc(NC(=O)c3cccc(-c4ccn[nH]4)n3)cc2)c1` the CI (BCWM1 [1]) was 0.761, the CI (BCWM1 [2]) was 0.488 and the CI (BCWM1 [3]) was 0.605. For the same molecule, the CI (BCWM1 [4]) was 0.573, the CI (BCWM1 [5]) was 0.561 and the CI (BCWM1 [6]) was 0.663. It also gave a CI (BCWM1 [7]) of 0.424, a CI (BCWM1 [8]) of 0.572 and a CI (BCWM1 [9]) of 0.557. The CI (BCWM1 [10]) was 0.375, the CI (BCWM1 [11]) was 0.752 and the CI (BCWM1 [12]) was 0.454. For the same molecule, the CI (BCWM1 [13]) was 0.734, the CI (BCWM1 [14]) was 0.622 and the CI (BCWM1 [15]) was 0.397. The CI (BCWM1 [16]) was 0.958, the CI (BCWM1 [17]) was 0.556 and the CI (BCWM1 [18]) was 1.05. For the same molecule, the CI (BCWM1 [19]) was 0.743, the CI (BCWM1 [20]) was 0.428 and the CI (BCWM1 [21]) was 1.04. It also gave a CI (BCWM1 [22]) of 0.577, a CI (BCWM1 [23]) of 1.1 and a CI (BCWM1 [24]) of 0.982. The CI (BCWM1 [25]) was 0.32, the CI (TMD8 [26]) was 0.193 and the CI (TMD8 [27]) was 0.126. The CI (TMD8 [28]) was 0.375, the CI (TMD8 [29]) was 0.914 and the CI (TMD8 [30]) was 1.11. For the same molecule, the CI (TMD8 [31]) was 0.035, the CI (TMD8 [32]) was 0.022 and the CI (TMD8 [33]) was 0.115. The CI (TMD8 [34]) was 0.321, the CI (TMD8 [35]) was 0.387 and the CI (TMD8 [36]) was 0.025. For the same molecule, the CI (TMD8 [37]) was 0.014, the CI (TMD8 [38]) was 0.082 and the CI (TMD8 [39]) was 0.179. For the same molecule, the CI (TMD8 [40]) was 0.232, the CI (TMD8 [41]) was 0.066 and the CI (TMD8 [42]) was 0.08. For the same molecule, the CI (TMD8 [43]) was 0.343, the CI (TMD8 [44]) was 0.485 and the CI (TMD8 [45]) was 0.649.
